Measured values as given in publication PMC12184805 (Journal of medicinal chemistry, 2025).

The chains behind the UniProt entries cited, without tags or fusion partners. Residues count along the entry.
UniProt P00743, 234-492 limits assumed: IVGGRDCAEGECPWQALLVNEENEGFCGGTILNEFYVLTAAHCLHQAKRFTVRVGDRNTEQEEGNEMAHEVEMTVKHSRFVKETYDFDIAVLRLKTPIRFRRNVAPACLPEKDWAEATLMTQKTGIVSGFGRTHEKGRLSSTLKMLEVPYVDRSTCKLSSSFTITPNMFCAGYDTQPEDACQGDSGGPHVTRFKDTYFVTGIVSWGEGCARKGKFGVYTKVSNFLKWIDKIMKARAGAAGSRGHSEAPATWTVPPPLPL

Target: FXa (Bos taurus, UniProt P00743)
Assay: Factor Xa chromogenic substrate assay
Type: biochemical
Details: anticoagulant activity against FXa

## 1,2′,2‴,3,6‴-Penta-N-sulfo-2″,3′,3‴,4,4′,4‴-hexa-O-(2-naphthylmethyl)-5″,6′-(N-1,1′-biphenyl-4-yl)-paromomycindicarboxamide [Ligand L15]
  IC50: > 500 µM
